{"sequences": {"note": "Chains of the proteins cited; added tags and fusions are not shown. Residues count along the entry.", "UniProt P35222, 138-686": "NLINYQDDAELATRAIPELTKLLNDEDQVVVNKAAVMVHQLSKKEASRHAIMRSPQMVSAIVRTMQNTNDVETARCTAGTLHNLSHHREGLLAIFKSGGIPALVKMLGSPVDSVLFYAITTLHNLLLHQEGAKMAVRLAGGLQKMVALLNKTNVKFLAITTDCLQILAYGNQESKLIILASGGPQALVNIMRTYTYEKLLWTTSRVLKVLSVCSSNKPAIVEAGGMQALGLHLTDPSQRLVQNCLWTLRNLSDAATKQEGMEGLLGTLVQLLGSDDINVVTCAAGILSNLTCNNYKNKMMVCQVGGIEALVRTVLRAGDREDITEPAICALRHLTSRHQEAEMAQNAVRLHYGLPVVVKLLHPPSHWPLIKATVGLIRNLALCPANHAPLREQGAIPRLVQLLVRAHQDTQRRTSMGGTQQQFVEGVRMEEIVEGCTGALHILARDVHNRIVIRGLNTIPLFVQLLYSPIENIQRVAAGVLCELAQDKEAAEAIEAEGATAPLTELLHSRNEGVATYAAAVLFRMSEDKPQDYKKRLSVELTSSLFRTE"}, "source": "patent US20180092866A1", "about": "“SUBSTITUTED N-([1,1'-BIPHENYL]-3-YL)-[1,1'-BIPHENYL]-3-CARBOXAMIDE ANALOGS AS INHIBITORS FOR BETA-CATENIN/B-CELL LYMPHOMA 9 INTERACTIONS” (University of Utah Research Foundation, priority 2015, published 2018)", "target": "T1, β-catenin/E-cadherin PPIs (Homo sapiens, UniProt P35222)", "T1 construct": "β-Catenin or its mutants (residues 138-686) was cloned into a pET-28b vector; made in house; host or cells: E. coli BL21 DE3", "assay": "AlphaScreen selectivity assay, β-catenin/BCL9 versus β-catenin/E-cadherin", "format": "binding", "from_the_text": "Human BCL9 (residues 350-375), N-terminally biotinylated human BCL9 (residues 350-375), N-terminally fluorescein-labeled human BCL9 (residues 350-375), and N-terminally biotinylated human E-cadherin (residues 824-877) were synthesized by InnoPep Inc. (San Diego, Calif., www.innopep.com). All synthesized peptides were purified by HPLC with purity >95%. The structures were validated by LC/MS. The sequences are shown in Table 2 (Ahx, 6-aminohexanoic acid).\nThe purity of the wild-type and mutant β-catenin proteins was all greater than 95% as determined by the SDS-PAGE gel analysis. Both the wild-type and mutant β-catenin proteins are stable under the testing conditions. Native non-denaturing gel electrophoresis was performed to confirm the homogeneity of the purified proteins. Experiments were performed in white opaque 384-well plates from PerkinElmer, and the samples were read on a Synergy 2 plate reader (Biotek) with a sensitivity setting of 200 using AlphaScreen protocol with excitation at 680 nm and emission at 570 nm. All dilutions were made in 1×assay buffer containing 25 mM HEPES (pH=7.0), 100 mM NaCl, 0.01% Triton X-100, and 0.1% BSA. […] The IC50 value was determined by nonlinear least-square analysis of GraphPad Prism 5.0. […]"}
{"smiles": "O=C(Nc1ccc(O[C@H]2CCNC2)c(-c2ccc(F)cc2)c1)c1ccc(O[C@H]2CCNC2)c(-c2ccc(F)c(F)c2)c1", "note": "[Compound 21, (S)-3-((3′,4′-difluoro-5-((4′-fluoro-6-((S)-pyrrolidin-1-ium-3-yloxy)-[1,1′-biphenyl]-3-yl)carbamoyl)-[1,1′-biphenyl]-2-yl)oxy) pyrrolidin-1-ium chloride]", "values": [{"measurement": "selectivity for β-catenin/BCL9 over β-catenin/E-cadherin PPIs", "result": 125, "unit": "fold"}]}
